Data from publication PMC3772510 (ChemMedChem, 2011).

Protein sequences, listed by entry. Tags and fused reporters are not part of them.
UniProt Q00987, whole entry: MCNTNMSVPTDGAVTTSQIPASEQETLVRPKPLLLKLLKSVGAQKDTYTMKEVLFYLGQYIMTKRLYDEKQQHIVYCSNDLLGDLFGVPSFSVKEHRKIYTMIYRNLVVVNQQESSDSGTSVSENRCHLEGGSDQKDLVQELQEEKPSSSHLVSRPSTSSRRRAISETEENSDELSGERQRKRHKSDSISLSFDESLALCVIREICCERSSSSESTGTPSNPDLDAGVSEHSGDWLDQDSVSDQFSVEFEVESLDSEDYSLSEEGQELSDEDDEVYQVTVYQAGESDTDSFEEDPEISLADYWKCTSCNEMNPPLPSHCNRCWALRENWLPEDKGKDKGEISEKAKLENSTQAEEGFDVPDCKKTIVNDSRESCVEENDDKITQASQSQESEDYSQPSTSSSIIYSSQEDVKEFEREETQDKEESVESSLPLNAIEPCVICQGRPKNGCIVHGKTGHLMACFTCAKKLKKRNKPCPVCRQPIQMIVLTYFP

Molecular target: Mdm2 (Homo sapiens, UniProt Q00987)
Assay: fluorescence polarisation assay, binding constants
Conditions: derived from Ki and molecular weight

binding efficiency index (BEI): 12.7
Compound: COc1ccc(C2=N[C@@H](c3ccc(Cl)cc3)[C@@H](c3ccc(Cl)cc3)N2C(=O)N2CCNC(=O)C2)c(OC(C)C)c1 [Nutlin-3a, nutlin-3a]
